# Ab-95 light chain CDR variants: yeast mating affinities

Data: MIT Lincoln Laboratory AlphaSeq set, Engelhart et al. 2022, doi:10.1038/s41597-022-01779-4, as distributed in FLAb.

The target is the same throughout: PDVDLGDISGINAS, from the HR2 region of SARS-CoV-2 spike.

Parent: Ab-95, a human scFv built as VH, the linker GGGGSGGGGSGGGGS, VL. Only the CDRs of the light chain vary.
VH: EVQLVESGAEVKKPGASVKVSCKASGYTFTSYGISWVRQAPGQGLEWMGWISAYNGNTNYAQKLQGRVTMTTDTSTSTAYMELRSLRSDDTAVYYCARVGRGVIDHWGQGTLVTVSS
VL: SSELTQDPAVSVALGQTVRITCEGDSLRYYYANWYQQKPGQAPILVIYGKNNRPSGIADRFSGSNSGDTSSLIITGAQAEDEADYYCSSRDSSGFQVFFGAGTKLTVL

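Phage display of a naive human antibody library on the peptide gave the parent. Variants in AAYL52 differ from the parent at up to three CDR positions; double and triple changes were sampled at random. The scFvs were displayed on barcoded MATa yeast, the peptide on MATalpha yeast. The frequency of each diploid, read from paired DNA barcodes, reflects how well the two displayed proteins bind. Read counts were normalised to the haploid input and turned into Kd by a linear fit to BCL2-family pairs of known affinity, for each replicate. There are three technical replicates.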

Substitutions are numbered in sequence along the VL above, starting at 1 (not Kabat).
This list gathers variants with a substitution at D91 (VL, numbered from residue 1).
Affinities are written as log10 Kd with Kd in nM; a lower number is a better binder.
A mean of the replicates is given; it leaves out those without a signal.
"nd" marks a missing value. The strain was present, yet no cells mated with the target were sequenced in that replicate, which points to weak or no binding.
The list is sorted by this average, lowest first, undetected variants last.
In this assay the parent's reference entry averaged 2.31; its copy inside this library read 2.25.
Nonspecific signal, from three strains lacking the peptide, appeared in 28% of pairings of library AAYL52, centred on 3.91 (5% of these signals below 2.90); values are not corrected for it.

- G49K/D91S/G94S = 1.77, nd, nd
- Y29T/R90H/D91A = 1.82, 1.91, 1.62 (mean 1.78)
- D91H/V97F = 1.99, 2.19, 1.85 (mean 2.01)
- D25P/D91W = 2.40, 2.37, 1.38 (mean 2.05)
- N51D/D91T/V97L = 2.35, 2.39, 2.13 (mean 2.29)
- Y29A/D91H/V97C = 2.29, 2.23, 2.57 (mean 2.36)
- S55G/D91S/V97C = 2.66, 2.55, 2.22 (mean 2.48)
- D25Y/D91P/F98E = 2.16, 2.59, 2.92 (mean 2.56)
- D25M/D91P/Q96E = 2.66, 2.88, 2.32 (mean 2.62)
- R90V/D91K = 2.58, 2.74, nd (mean 2.66)
- Y29R/N52L/D91G = 2.58, 2.30, 3.19 (mean 2.69)
- D91Q = 2.82, 3.17, 2.46 (mean 2.82)
- A32G/N33D/D91A = 4.08, nd, 2.35 (mean 3.21)
- Y29E/D91E/F98T = 3.31, 3.94, nd (mean 3.62)
- Y30T/R53M/D91W = nd, 3.68, nd
- L27S/R28C/D91H = 3.09, 4.90, nd (mean 4.00)
- A32C/N52F/D91Y = nd, 4.01, nd
- D25E/N33V/D91P = nd, nd, 4.10
- L27E/Y29H/D91W = 4.29, 3.92, 4.44 (mean 4.22)
- G49A/D91V/G94H = 3.89, 4.75, 4.28 (mean 4.30)
- N33K/D91C/F95S = 4.31, nd, nd
- N52C/D91G/Q96G = nd, 4.36, nd
- E23W/N52W/D91M = 4.37, nd, nd
- K50C/D91F/S92T = nd, nd, 4.46
- A32H/G49V/D91V = nd, 5.05, nd
- R28T/K50M/D91P = 5.30, nd, nd
- A32V/P54W/D91C = nd, 5.49, nd
- D25W/L27R/D91F = nd, 5.68, nd
- N33G/D91G/S92P = nd, nd, nd
- R53M/D91Q = nd, nd, nd
- D91I/Q96Y = nd, nd, nd
- G49D/D91N/S93C = nd, nd, nd

Excerpt, the final 4 entries:

| changes | log10 Kd (nM) by replicate | mean, log10 nM |
|---|---|---|
| N33G/D91G/S92P | nd, nd, nd | nd |
| R53M/D91Q | nd, nd, nd | nd |
| D91I/Q96Y | nd, nd, nd | nd |
| G49D/D91N/S93C | nd, nd, nd | nd |